Where two headings read alike, the source gives them in different places.
Assays:
Assay in all cases: stopped-flow fluorescence
[1] = biological target: Porcine skeletal actin, pyrene-labeled (porcine) (UniProt P68137)
[2] = biological target: Porcine skeletal actin, pyrene-labeled (porcine) (UniProt P68137); remark: listed apart in the source
[3] = biological target: Porcine skeletal actin, pyrene-labeled (porcine) (UniProt P68137); remark: listed apart in the source

kon [1] [M⁻¹ s⁻¹]	kon [2] [M⁻¹ s⁻¹]	kon [3] [M⁻¹ s⁻¹]	Kd [1] [µM]	Kd [2] [µM]	Kd [3] [µM]	Substance
0.33	0.33	0.32	–	–	–	myosin_c-MyBPC.PKA complex (porcine cardiac myosin with PKA-phosphorylated porcine c-MyBPC), P79293 1-1935
–	–	–	6.79	11.5	16.4	myosin_c-MyBPC complex (porcine cardiac myosin with unphosphorylated porcine c-MyBPC), P79293 1-1935

Source: paper PMC5598764
